# Target: T1, Aminopeptidase N (Plasmodium falciparum FcB1/Columbia, UniProt O96935)
# T1 sequence (O96935 whole entry): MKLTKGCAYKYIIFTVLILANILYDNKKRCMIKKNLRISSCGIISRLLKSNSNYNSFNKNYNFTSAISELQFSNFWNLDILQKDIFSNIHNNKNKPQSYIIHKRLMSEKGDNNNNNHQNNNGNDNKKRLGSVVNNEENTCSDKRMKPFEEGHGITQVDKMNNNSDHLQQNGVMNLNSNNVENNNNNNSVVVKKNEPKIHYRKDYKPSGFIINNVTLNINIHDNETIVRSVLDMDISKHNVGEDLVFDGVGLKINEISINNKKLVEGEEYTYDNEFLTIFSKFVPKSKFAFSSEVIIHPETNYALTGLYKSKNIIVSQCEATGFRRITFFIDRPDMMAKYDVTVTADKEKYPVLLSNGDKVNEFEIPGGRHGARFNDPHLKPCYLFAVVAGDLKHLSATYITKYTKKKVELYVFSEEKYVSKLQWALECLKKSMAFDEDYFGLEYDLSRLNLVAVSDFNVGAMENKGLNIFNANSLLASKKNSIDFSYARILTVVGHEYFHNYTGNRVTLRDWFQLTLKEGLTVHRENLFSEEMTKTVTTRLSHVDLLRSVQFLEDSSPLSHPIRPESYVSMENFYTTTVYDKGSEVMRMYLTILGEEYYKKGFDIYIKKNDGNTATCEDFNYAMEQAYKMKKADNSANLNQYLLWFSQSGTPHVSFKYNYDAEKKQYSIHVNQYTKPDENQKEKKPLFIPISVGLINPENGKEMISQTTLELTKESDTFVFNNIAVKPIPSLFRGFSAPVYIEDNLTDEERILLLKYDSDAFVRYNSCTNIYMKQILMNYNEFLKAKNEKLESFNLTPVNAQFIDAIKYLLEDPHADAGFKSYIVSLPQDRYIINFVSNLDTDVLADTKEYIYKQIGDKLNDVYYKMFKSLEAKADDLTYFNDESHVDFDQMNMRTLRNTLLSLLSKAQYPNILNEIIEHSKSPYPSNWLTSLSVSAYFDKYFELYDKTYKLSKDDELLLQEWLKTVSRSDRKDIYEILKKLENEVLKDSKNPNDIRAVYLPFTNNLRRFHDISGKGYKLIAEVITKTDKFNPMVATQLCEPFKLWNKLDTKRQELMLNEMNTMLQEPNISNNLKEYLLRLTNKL
# Assay: Inhibition of Plasmodium falciparum recombinant M1-aminopeptidase expressed in Escherichia coli after 40 mins uisng fluorogenic substrate L-Leucyl-7-amido-40-methylcoumarin by fluorescence spectrophotometry
# Summary of the method: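 Recombinant PfA-M1 expressed in E. coli, 0.9 nM, in 50 mM HEPES pH 7.5, 100 mM NaCl, 0.1% Triton X-100. Ki by Dixon plots (1/rate vs [I]) and secondary plots vs 1/[S]. Competitive mode checked with a/v vs i plots.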
row,Ki,Structure (SMILES)
1,490 nM,CC(C)C[C@H](NC(=O)[C@@H](O)[C@H](N)Cc1ccc(OCc2ccccc2)cc1)C(=O)O
2,43 nM,COc1ccc(C[C@@H](N)[C@H](O)C(=O)N[C@@H](CC(C)C)C(=O)O)cc1
